Measured affinities in a library of Ab-14 heavy chain variants

Binding partner: SARS-CoV-2 spike HR2 peptide, sequence PDVDLGDISGINAS.

Each scFv is VH, three GGGGS repeats, VL, as in the parent Ab-14, and differs from it in the CDRs of the heavy chain only.
VH: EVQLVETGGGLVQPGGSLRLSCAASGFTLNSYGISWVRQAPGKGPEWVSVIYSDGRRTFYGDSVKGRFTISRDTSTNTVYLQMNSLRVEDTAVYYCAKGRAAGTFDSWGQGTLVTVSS
VL: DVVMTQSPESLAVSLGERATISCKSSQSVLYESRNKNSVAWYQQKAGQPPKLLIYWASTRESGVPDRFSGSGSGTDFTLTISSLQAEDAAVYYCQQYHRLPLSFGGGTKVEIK

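Phage display of a naive human antibody library on the peptide gave the parent. This is the validation round: designs drawn from the data on random variants, tested in the same kind of assay. Group labels follow the data file (Rand: our label for a block that the file lists under HC and that is probably the random mutants of the ten best first-round binders; En: ensemble of fine-tuned language models; HC: hill climbing; Gen: genetic algorithm; Gibbs: Gibbs sampling; a sequence that several methods proposed may carry one label only). In AlphaSeq, yeast of one mating type display the scFv and yeast of the other type display the target. Binding brings cells together so that they mate, and sequencing counts the barcode pairs among the diploids. Each replicate has its own calibration line, from reference interactions of the BCL2 family. Mating was done six times.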

The whole VH of each variant is written out. Variants here have more than six changes. Kd is apparent (estimated from mating counts) and averaged on the log scale over replicates with a signal. Smaller is tighter. An entry "no signal" has no value in the source: the pair was not observed among the diploids in any replicate. This suggests poor binding but is not conclusive. Nonspecific signal, from three strains lacking the peptide, appeared in 1% of pairings of all heavy chain designs, centred on 120 nM (5% of these signals below 7.0 nM); values are not corrected for it. The control count says in how many pairings with the empty strains this scFv gave a signal.

The variant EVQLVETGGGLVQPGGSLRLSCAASGESLEEYGISWVRQAPGKGPEWVSVIYADGMRNAYVSKVKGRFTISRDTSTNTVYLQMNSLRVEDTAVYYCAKGTNSGDFTIWGQGTLVTVSS [En_Gibbs] showed 6.1 nM (5 of 6 replicates; controls 0 of 18). The variant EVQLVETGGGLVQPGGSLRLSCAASGADLNEYGISWVRQAPGKGPEWVSVIYADGRSVYYANSFKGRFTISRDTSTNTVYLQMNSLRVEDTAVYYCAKGHVAGTFDSWGQGTLVTVSS [En_Gibbs] showed 89 nM (3 of 6 replicates; controls 0 of 18). The variant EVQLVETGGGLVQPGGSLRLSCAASGFDLDEYGISWVRQAPGKGPEWVSVIYADGKRTAYIDSVKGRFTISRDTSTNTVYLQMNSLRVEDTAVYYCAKGNTAGTFDVWGQGTLVTVSS [En_Gen] gave 490 pM (6 of 6 replicates; controls 1 of 18). With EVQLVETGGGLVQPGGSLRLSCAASGFNLNEYGISWVRQAPGKGPEWVSVIYADGRRTFYADSVKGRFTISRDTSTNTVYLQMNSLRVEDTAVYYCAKGEIAGTFIMWGQGTLVTVSS [En_HC] the result was 1.9 nM (6 of 6 replicates; controls 0 of 18). The variant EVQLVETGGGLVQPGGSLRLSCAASGFDLNEYGISWVRQAPGKGPEWVSVIYADGRRTQYIDSVKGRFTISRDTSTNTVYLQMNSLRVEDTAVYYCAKGEIAGTFDAWGQGTLVTVSS [En_HC] showed 400 pM (6 of 6 replicates; controls 0 of 18). The variant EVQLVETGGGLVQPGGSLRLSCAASGFDLNEYGISWVRQAPGKGPEWVSVIYADGMRTAYANSVKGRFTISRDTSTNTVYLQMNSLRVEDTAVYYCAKGQNAGTFDVWGQGTLVTVSS [En_Gen] gave 200 pM (6 of 6 replicates; controls 0 of 18). The variant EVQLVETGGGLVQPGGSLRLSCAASGDKLEAYGISWVRQAPGKGPEWVSVIYADGQRAAYVDKVKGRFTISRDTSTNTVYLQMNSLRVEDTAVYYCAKGQHGGMFDQWGQGTLVTVSS [En_Gibbs] showed 290 nM (1 of 6 replicates; controls 0 of 18). For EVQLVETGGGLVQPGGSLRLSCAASGFDINEYGISWVRQAPGKGPEWVSVIYADGQRVYYAEKVKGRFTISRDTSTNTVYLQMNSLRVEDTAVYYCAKGFNQTINVVWGQGTLVTVSS [En_Gibbs], the assay gave no signal (0 of 6 replicates; controls 0 of 18).

With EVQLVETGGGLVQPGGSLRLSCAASGFHLNDYGISWVRQAPGKGPEWVSVIYSDKRATQYIDSVKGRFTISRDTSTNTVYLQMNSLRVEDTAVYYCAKGRLAGTFDSWGQGTLVTVSS [Rand] the result was no signal (0 of 6 replicates; controls 0 of 18). With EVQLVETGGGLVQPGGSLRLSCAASGFDLDEYGISWVRQAPGKGPEWVSVIYADGSRTAYSDSVKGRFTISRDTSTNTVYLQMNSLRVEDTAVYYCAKGNVAGTFDVWGQGTLVTVSS [En_Gen] the result was 63 nM (5 of 6 replicates; controls 0 of 18). With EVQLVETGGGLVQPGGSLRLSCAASGFDLNEYGISWVRQAPGKGPEWVSVIYADGRRTFYIDSVKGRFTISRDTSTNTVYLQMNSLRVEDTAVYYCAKGEDAGTFNVWGQGTLVTVSS [En_HC] the result was 710 pM (6 of 6 replicates; controls 0 of 18). The variant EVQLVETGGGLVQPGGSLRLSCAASGFDLNEYGISWVRQAPGKGPEWVSVIYADGMRTYYSDSVKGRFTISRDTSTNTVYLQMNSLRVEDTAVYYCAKGENAGTFDIWGQGTLVTVSS [En_Gen] gave 2.8 nM (6 of 6 replicates; controls 0 of 18). The variant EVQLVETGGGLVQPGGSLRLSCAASGFDLNEYGISWVRQAPGKGPEWVSVIYADGQRTAYADSVKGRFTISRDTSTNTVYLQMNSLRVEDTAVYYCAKGQTAGTFDVWGQGTLVTVSS [En_Gen] showed 750 pM (6 of 6 replicates; controls 0 of 18). The variant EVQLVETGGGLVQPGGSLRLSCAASGFDLDEYGISWVRQAPGKGPEWVSVIYADGMRTAYSDKVKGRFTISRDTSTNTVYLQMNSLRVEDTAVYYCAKGENAGTFDVWGQGTLVTVSS [En_Gen] gave 530 pM (6 of 6 replicates; controls 0 of 18). The variant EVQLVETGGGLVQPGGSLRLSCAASGFDLNEYGISWVRQAPGKGPEWVSVIYADGRRTAYIDSVKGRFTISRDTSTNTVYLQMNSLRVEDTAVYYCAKGEVAGTFDLWGQGTLVTVSS [En_HC] showed 95 pM (6 of 6 replicates; controls 0 of 18). The variant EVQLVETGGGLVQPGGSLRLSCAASGFDLDEYGISWVRQAPGKGPEWVSVIYADGKRSYYADSVKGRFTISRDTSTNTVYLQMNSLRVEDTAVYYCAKGNVAGTFDVWGQGTLVTVSS [En_Gen] showed 220 pM (6 of 6 replicates; controls 0 of 18).

The variant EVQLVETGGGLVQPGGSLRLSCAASGFDLNEYGISWVRQAPGKGPEWVSVIYADGRRTFYDDSVKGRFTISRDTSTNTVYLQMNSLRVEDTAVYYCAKGKTAGTFDQWGQGTLVTVSS [En_HC] showed 460 pM (6 of 6 replicates; controls 0 of 18). The variant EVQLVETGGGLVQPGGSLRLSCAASGFDLNEYGISWVRQAPGKGPEWVSVIYADGRRTFYIDSVKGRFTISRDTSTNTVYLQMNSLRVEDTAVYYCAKGQLAGTFDLWGQGTLVTVSS [En_HC] showed 2.8 nM (6 of 6 replicates; controls 1 of 18).

For reference, 3 entries of the list once more:

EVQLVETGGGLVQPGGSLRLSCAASGFDINEYGISWVRQAPGKGPEWVSVIYADGQRVYYAEKVKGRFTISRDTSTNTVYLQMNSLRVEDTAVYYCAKGFNQTINVVWGQGTLVTVSS [En_Gibbs]: no signal (0 of 6 replicates; controls 0 of 18).
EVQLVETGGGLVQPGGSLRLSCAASGFDLNEYGISWVRQAPGKGPEWVSVIYADGRRTAYIDSVKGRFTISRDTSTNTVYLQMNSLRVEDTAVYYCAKGEVAGTFDLWGQGTLVTVSS [En_HC]: 95 pM (6 of 6 replicates; controls 0 of 18).
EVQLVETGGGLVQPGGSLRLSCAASGFNLNEYGISWVRQAPGKGPEWVSVIYADGRRTFYADSVKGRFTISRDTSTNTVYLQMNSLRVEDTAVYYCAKGEIAGTFIMWGQGTLVTVSS [En_HC]: 1.9 nM (6 of 6 replicates; controls 0 of 18).

The authors' rule: three or more of the six replicates give a measured affinity, fewer mean a poor binder. Of ten entries with the parent sequence, four were seen in most replicates (averages 2.2 nM to 240 nM), three in one and three in none, so single entries are noisy. Values of this round are not directly comparable with the first-round values of the same sequences.

Source: Li et al. 2023 (doi:10.1038/s41467-023-39022-2), MIT Lincoln Laboratory and A-Alpha Bio; data file from the FLAb repository.